For one compound, lysis of erythrocytes results are on record in patent US20190367567A1 (priority 2016, published 2019).

The data set deals with human erythrocytes. The data set is described as follows: Human RBC hemolysis (toxicity). The following applies: at 160 μM.

The structures appear in SMILES notation.

Compound `CC[C@H](C)[C@H](N)C(=O)N1CCC[C@H]1C(=O)N[C@@H](C)C(=O)N[C@@H](CCCNC(=N)N)C(=O)NCC(=O)N[C@@H](C)C(=O)N[C@@H](Cc1ccccc1)C(=O)N[C@H](C(=O)N[C@@H](CC(N)=O)C(=O)NCC(=O)N[C@@H](CCCNC(=N)N)C(=O)N[C@@H](Cc1c[nH]c2ccccc12)C(=O)N[C@@H](CC(=O)O)C(=O)N[C@@H](CO)C(=O)N[C@@H](CCC(N)=O)C(=O)N[C@@H](CS)C(=O)N[C@@H](Cc1c[nH]cn1)C(=O)N[C@@H](CCCNC(=N)N)C(=O)N[C@@H](Cc1ccccc1)C(=O)N[C@@H](CO)C(=O)N[C@@H](CC(N)=O)C(=O)NCC(=O)N[C@@H](C)C(=O)N[C@H](C(=O)N[C@@H](C)C(=O)N[C@@H](CS)C(=O)N[C@@H](C)C(=O)O)[C@@H](C)CC)[C@@H](C)CC` displayed a lysis of erythrocytes of 20%.
